In this experiment the target is Transient receptor potential cation channel subfamily A member 1 (Homo sapiens, UniProt O75762).

Amino acid sequences for entries named in this document (tags omitted).
UniProt O75762, whole entry, looked up: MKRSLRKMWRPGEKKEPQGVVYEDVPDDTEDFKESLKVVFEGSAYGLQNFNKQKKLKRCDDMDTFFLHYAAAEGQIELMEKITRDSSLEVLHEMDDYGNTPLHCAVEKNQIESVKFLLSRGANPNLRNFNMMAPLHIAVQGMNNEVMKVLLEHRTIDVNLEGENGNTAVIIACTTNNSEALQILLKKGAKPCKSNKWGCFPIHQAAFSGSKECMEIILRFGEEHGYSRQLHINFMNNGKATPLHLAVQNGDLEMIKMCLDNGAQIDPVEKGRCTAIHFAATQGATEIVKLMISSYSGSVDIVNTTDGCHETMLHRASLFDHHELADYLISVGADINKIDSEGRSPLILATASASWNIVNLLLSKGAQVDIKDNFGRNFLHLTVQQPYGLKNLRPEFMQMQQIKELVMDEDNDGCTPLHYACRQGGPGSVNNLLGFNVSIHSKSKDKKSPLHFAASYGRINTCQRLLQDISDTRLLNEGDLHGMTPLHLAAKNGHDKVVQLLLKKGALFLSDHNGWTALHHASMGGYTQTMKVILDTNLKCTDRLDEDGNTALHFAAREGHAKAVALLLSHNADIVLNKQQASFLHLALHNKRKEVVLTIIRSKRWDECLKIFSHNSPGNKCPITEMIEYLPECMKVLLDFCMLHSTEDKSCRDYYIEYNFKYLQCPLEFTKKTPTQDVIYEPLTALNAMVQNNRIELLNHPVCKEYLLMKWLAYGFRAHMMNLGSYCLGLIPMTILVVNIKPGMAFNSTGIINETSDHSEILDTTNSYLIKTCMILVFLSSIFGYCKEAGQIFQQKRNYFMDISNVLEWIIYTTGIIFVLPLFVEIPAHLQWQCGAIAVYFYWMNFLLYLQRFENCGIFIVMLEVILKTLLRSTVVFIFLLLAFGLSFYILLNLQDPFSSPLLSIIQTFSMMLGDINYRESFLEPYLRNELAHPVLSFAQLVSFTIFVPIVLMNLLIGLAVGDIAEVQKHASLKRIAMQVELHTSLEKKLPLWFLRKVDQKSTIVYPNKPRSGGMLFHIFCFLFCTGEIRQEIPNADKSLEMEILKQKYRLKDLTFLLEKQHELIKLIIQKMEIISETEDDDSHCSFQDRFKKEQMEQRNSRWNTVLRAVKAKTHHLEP

Consider `S=C=NCc1ccccc1`, for which the midpoint of the response, the EC50, lay at 11 µM. This lies in the double-digit micromolar range.
